We go through 5 compounds from patent US9150544B2 (dated 2015).

By UniProt entry, the sequences of proteins in these tests, tags left out.
UniProt P00740, whole entry partner, looked up: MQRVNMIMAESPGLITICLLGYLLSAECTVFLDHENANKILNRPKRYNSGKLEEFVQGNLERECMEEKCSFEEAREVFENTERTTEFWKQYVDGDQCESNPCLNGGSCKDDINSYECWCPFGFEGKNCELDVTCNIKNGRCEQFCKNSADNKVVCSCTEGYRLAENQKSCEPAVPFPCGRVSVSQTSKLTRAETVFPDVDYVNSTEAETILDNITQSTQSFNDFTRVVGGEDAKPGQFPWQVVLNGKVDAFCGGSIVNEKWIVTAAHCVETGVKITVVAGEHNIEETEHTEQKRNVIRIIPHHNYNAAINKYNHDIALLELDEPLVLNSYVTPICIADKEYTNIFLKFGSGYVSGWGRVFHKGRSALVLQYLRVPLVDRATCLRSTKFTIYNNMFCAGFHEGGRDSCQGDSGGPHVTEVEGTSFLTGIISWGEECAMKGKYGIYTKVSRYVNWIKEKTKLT

The experiment has as its target human factor IXa (Homo sapiens (Human), UniProt P00740). As to the kind of experiment: biochemical. Conditions: read-out: Imax IXa (percentage inhibition at the maximum concentration tested).
In the case of `CCOC(=O)[C@@H](Cc1cc2ccnc(N)c2cc1Cl)N1CC[C@H](NS(=O)(=O)c2cnc(N3CCCC3)s2)C1=O` [Compound 84, (R)-3-(1-Amino-7-chloro-isoquinolin-6-yl)-2-[(S)-2-oxo-3-(2-pyrrolidin-1-yl-thiazole-5-sulfonylamino)-pyrrolidin-1-yl]-propionic acid ethyl ester], the inhibition at 5 µM turned out to be 60%.
`COC(=O)[C@@H](Cc1cc2ccnc(N)c2cc1Cl)N1CC[C@H](NS(=O)(=O)c2cnc(N3CCC3)s2)C1=O` [Compound 85]: the inhibition at 5 µM amounted to 63%.
On to `COC(=O)[C@@H](Cc1cc2ccnc(N)c2cc1OC(F)(F)F)N1CC[C@H](NS(=O)(=O)c2cnc(N(C)C)c(Cl)c2)C1=O` [Compound 86, (R)-3-(1-Amino-7-trifluoromethoxy-isoquinolin-6-yl)-2-[(S)-3-(5-chloro-6-dimethylamino-pyridine-3-sulfonylamino)-2-oxo-pyrrolidin-1-yl]-propionic acid methyl ester], for which the inhibition at 5 µM was 50%.
In the case of `CCCCOC(=O)[C@@H](Cc1cc2ccnc(N)c2cc1Cl)N1CC[C@H](NS(=O)(=O)c2cnc(N3CCCC3)s2)C1=O` [Compound 93, (R)-3-(1-Amino-7-chloro-isoquinolin-6-yl)-2-[(S)-2-oxo-3-(2-pyrrolidin-1-yl-thiazole-5-sulfonylamino)-pyrrolidin-1-yl]-propionic acid butyl ester] it was 63%.
Consider `COC(=O)[C@@H](Cc1cc2ccnc(N)c2cc1C#N)N1CC[C@H](NS(=O)(=O)c2cnc(N3CCCC3)s2)C1=O` [Compound 94, (R)-3-(1-Amino-7-cyano-isoquinolin-6-yl)-2-[(S)-2-oxo-3-(2-pyrrolidin-1-yl-thiazole-5-sulfonylamino)-pyrrolidin-1-yl]-propionic acid methyl ester], for which the inhibition at 5 µM came to 58%.
